In patent US20100120763A1, “IMIDAZO[5,1-C][1,2,4]BENZOTRIAZINE DERIVATIVES AS INHIBITORS OF PHOSPHODIESTERASES” (priority 2008, published 2010):
Read-outs that look alike come from different tables or passages of the source.

Sequences of proteins named here, by UniProt entry; tags and fusion partners are left off.
UniProt O00408, whole entry: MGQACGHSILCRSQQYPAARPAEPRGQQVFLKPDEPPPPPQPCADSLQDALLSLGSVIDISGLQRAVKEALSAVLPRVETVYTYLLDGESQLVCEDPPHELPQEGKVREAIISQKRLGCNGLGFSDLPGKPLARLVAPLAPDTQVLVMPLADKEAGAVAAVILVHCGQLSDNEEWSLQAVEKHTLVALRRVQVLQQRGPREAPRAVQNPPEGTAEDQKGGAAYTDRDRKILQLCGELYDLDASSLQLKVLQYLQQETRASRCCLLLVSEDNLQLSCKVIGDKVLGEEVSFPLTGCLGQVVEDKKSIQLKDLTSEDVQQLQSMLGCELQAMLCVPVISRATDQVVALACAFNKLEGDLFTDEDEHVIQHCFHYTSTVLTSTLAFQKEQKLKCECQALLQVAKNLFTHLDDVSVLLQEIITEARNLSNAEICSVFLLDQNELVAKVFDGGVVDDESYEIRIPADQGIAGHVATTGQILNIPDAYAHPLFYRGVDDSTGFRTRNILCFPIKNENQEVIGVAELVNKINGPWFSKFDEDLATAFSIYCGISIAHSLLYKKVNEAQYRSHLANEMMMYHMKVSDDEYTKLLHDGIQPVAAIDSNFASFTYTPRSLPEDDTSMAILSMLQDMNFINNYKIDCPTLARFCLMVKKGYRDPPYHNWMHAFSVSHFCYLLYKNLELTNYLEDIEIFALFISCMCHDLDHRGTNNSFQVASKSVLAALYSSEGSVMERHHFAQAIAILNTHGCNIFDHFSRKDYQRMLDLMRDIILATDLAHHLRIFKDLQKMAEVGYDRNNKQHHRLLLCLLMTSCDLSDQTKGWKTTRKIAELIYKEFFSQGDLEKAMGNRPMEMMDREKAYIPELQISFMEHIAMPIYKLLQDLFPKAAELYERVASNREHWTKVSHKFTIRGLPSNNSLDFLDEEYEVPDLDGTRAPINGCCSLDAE

Molecular target: T1, PDE2A (Homo sapiens, UniProt O00408)
T1 construct: made in house; host or cells: SF21 insect cells (baculovirus)
Experiment: Inhibition of recombinant PDE2A (expressed in baculovirus/SF21-cells), [3H]-cAMP SPA
Assay type: biochemical
Description: Inhibition of Recombinant PDE2A (Expressed in Baculovirus/SF21-Cells)
PDE2A (NM002599) was cloned and the gene was inserted in the baculovirus and the enzyme-protein expressed in SF21-cells. The enzyme was isolated from these cells by harvesting the cells by an centrifugation at 200 g to collect the cells. The cells were resuspended in 50 mM Tris-HCl/5 mM MgCl2 buffer (pH=7.4) (Sigma, Deisenhofen, Germany; Merck, Darmstadt, Germany) and lysed by a sonication of the cells (three times for 15 seconds, Labsonic U, Fa. Braun, Degersheim, Switzerland, level “high”). The membrane fraction of PDE2A was obtained by a centrifugation at 48 000 g for 1 h, resuspended in buffer and stored at −70° C.
PDE2A activity was determined in a one step procedure in microtiterplates. The reaction mixture of 100 μl contained 50 mM Tris-HCl/5 mM MgCl2 buffer (pH=7.4) (Sigma, Deisenhofen, Germany; Merck, Darmstadt, Germany), 0.5 μM [3H]-cAMP (Amersham, Buckinghamshire, UK), 1000 nM cGMP and the enzyme. Non-specific enzyme activity was tested in the absence of cGMP. The reaction was initiated by addition of the substrate solution and was carried out at 37° C. for 30 minutes. Enzymatic activity then was stopped by addition of 25 μl SPA-beads (Amersham-Pharmacia). One hour later the mixture was measured in a liquid scintillation counter for microtiterplates (Microbeta Trilux). For pipetting of the incubation mixture the robot Biomek (Fa. Beckman) was routinely used.
For determination of IC50 values the Hill-plot, 2-parameter-model, was used.

[1] = recombinant PDE2A, membrane fraction, 0.5 μM [3H]-cAMP, 1000 nM cGMP, 37° C., 30 minutes, read-out: PDE2A IC50

IC50 [µM]	Compound	IC50 [1] [µM]
–	8-fluoro-6-methoxy-3-methyl-1-(2-methylpyridin-3-yl)imidazo[5,1-c][1,2,4]benzotriazine [Example 130]	1.27
–	8-fluoro-6-methoxy-3-methyl-1-(3-methylpyridin-4-yl)imidazo[5,1-c][1,2,4]benzotriazine [Example 131]	1.22
1.22	COc1ccc(Cl)cc1-c1nc(C)c2nnc3c(OC)cc(C(F)(F)F)cc3n12 [Example 142, 1-(5-Chloro-2-methoxyphenyl)-6-methoxy-3-methyl-8-(trifluoromethyl)benzo[e]imidazo[5,1-c][1,2,4]triazine]	–
